Data taken from patent US20240100181A1 (AbbVie / Abbott, published 2024).

What was measured:
human CD19 [1] = target: T1, human CD19 (human, UniProt P15391 20-556); test: flow cytometry on Raji (BL) cells, endogenous CD19; average of two experiments
T1 construct: whole, on cells; also called hu-CD19; cellular CD19
T1 sequence (looked up): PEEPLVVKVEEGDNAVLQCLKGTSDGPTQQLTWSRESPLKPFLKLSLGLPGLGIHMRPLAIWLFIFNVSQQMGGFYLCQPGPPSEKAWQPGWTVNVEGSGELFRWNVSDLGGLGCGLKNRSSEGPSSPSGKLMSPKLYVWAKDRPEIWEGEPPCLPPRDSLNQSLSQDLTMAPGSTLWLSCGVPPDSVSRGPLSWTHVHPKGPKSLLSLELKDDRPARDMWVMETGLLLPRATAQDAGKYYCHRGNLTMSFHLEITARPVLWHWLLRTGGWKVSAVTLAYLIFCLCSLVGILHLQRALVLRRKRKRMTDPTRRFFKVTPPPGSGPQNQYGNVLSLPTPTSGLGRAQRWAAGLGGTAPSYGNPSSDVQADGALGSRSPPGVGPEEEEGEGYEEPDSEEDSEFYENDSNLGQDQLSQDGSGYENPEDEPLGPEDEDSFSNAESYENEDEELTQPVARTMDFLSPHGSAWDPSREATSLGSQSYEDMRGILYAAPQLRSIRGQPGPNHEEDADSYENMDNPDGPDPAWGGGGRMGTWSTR

human CD19 [2] = target: T1, human CD19; test: flow cytometry on RS4; 11 (ALL) cells, endogenous CD19; average of two experiments
human CD19 [3] = target: T1, human CD19; test: flow cytometry on SUP-B15 (ALL) cells, endogenous CD19; average of two experiments
human CD19 [4] = target: T1, human CD19; test: flow cytometry on OCI-LY19 (DLBCL) cells, endogenous CD19; average of two experiments
human CD19 [5] = target: T1, human CD19; test: flow cytometry on 293T cells engineered with full-length human CD19; average of two experiments

EC50 (human CD19 [1]): 0.939 nM | EC50 (human CD19 [2]): 0.544 nM | EC50 (human CD19 [3]): 0.928 nM | EC50 (human CD19 [4]): 1.06 nM | EC50 (human CD19 [5]): 1.09 nM
B1: ADC-1 (CD19 Phosphorylated GRM agonist ADC: CD19 mAb conjugated to the drug linker of Formula V) (other)
heavy: EVQLVESGGGLVQPGGSLRLSCAASGFTFTTYWINWVRQAPGKGLEWIGNIYPSDSYTNYNQKFKDRATLSVDKSKNTAYLQMNSLRAEDTAVYYCTREDYYGSSSYYAMDYWGQGTLVTVSSASTKGPSVFPLAPSSKSTSGGTAALGCLVKDYFPEPVTVSWNSGALTSGVHTFPAVLQSSGLYSLSSVVTVPSSSLGTQTYICNVNHKPSNTKVDKKVEPKSCDKTHTCPPCPAPELLGGPSVFLFPPKPKDTLMISRTPEVTCVVVDVSHEDPEVKFNWYVDGVEVHNAKTKPREEQYNGSTYRVVSVLTVLHQDWLNGKEYKCKVSNKALPAPIEKTISKAKGQPREPQVYTLPPSREEMTKNQVSLTCLVKGFYPSDIAVEWESNGQPENNYKTTPPVLDSDGSFFLYSKLTVDKSRWQQGNVFSCSVMHEALHNHYTQKSLSLSPGK
light: AILMTQSPSSLSASVGDRVTITCKASQDVGTAVAWYQQKPGKAPKLLIYWASTRHTGVPSRFSGSGSGTDFTLTISSLQPEDFATYYCQQYSTYPLTFGQGTKVEIKRTVAAPSVFIFPPSDEQLKSGTASVVCLLNNFYPREAKVQWKVDNALQSGNSQESVTEQDSKDSTYSLSSTLTLSKADYEKHKVYACEVTHQGLSSPVTKSFNRGEC
modifications: zero or one phosphate-GRM drug linker molecule (Formula V) attached via cysteine -S-; cysteine position not stated; afucosylated at ASN-300 (EU: ASN-297); zero, one, two or three phosphate-GRM drug linker molecules (Formula V, Ala-Ala linker) attached via cysteine -S-; cysteine positions not stated
notes: also called CD19-GRM; CD19 GRM agonist ADC
